ChEMBL document CHEMBL6087474, “Discovery of an Efficacious RET PROTAC Degrader with Enhanced Antiproliferative Activity against Resistant Cancer Cells Harboring RET Solvent-Front Mutations” (J Med Chem, 2025)

Columns and labels:
BaF3 [1] = assay: PROTAC activity at CRBN/KIF5B-RET (unknown origin) expressed in mouse BaF3 cells assessed as induction of RET degradation by measuring fold change at 30 nM measured after 6 hrs by Western blot analysis; format: cell-based; settings: Homo sapiens
BaF3 [2] = assay: PROTAC activity at CRBN/KIF5B-RET (unknown origin) expressed in mouse BaF3 cells assessed as induction of RET degradation by measuring fold change at 30 nM preincubated with lenalidomide for 2 hrs followed by compound addition and measured after 6 hrs by Western blot analysis; format: cell-based; settings: Homo sapiens
BaF3 [3] = assay: Inhibition of Shc (unknown origin) phosphorylation in mouse BaF3 cells stably expression KIF5B-RET V804M mutant assessed as fold change in phosphorylated Shc protein level at 11.1 nM measured after 6 hrs by Western blot analysis; format: cell-based; settings: Homo sapiens
BaF3 [4] = assay: Inhibition of Shc (unknown origin) phosphorylation in mouse BaF3 cells stably expression wildtype KIF5B-RET assessed as fold change in phosphorylated Shc protein level at 11.1 nM measured after 6 hrs by Western blot analysis; format: cell-based; settings: Homo sapiens
BaF3 [5] = assay: Inhibition of Shc (unknown origin) phosphorylation in mouse BaF3 cells stably expression KIF5B-RET V804M mutant assessed as fold change in phosphorylated Shc protein level at 33.3 nM measured after 6 hrs by Western blot analysis; format: cell-based; settings: Homo sapiens
BaF3 [6] = assay: Inhibition of RET (unknown origin) phosphorylation in mouse BaF3 cells stably expressing KIF5B-RET-G810C mutant assessed as fold change in phosphorylated RET protein level at 100 nM measured after 6 hrs by Western blot analysis; format: cell-based; settings: Homo sapiens
BaF3 [7] = assay: Inhibition of Shc (unknown origin) phosphorylation in mouse BaF3 cells stably expression KIF5B-RET V804M mutant assessed as fold change in phosphorylated Shc protein level at 100 nM measured after 6 hrs by Western blot analysis; format: cell-based; settings: Homo sapiens
BaF3 [8] = assay: Inhibition of RET (unknown origin) phosphorylation in mouse BaF3 cells stably expressing wildtype KIF5B-RET fusion protein assessed as fold change in phosphorylated RET protein level at 300 nM measured after 6 hrs by Western blot analysis; format: cell-based; settings: Homo sapiens
BaF3 [9] = assay: PROTAC activity at CRBN/KIF5B-RET (unknown origin) expressed in mouse BaF3 cells assessed as induction of RET degradation by measuring fold change at 30 nM preincubated with compound for 2 hrs followed by compound washout and measured after 4 hrs by Western blot analysis; format: cell-based; settings: Homo sapiens
BaF3 [10] = assay: PROTAC activity at CRBN/KIF5B-RET (unknown origin) expressed in mouse BaF3 cells assessed as induction of RET degradation by measuring fold change at 30 nM preincubated with compound for 2 hrs followed by compound washout and measured after 8 hrs by Western blot analysis; format: cell-based; settings: Homo sapiens
BaF3 [11] = assay: PROTAC activity at CRBN/KIF5B-RET (unknown origin) expressed in mouse BaF3 cells assessed as induction of RET degradation by measuring fold change at 1.2 nM measured after 6 hrs by Western blot analysis; format: cell-based; settings: Homo sapiens
BaF3 [12] = assay: PROTAC activity at CRBN/KIF5B-RET (unknown origin) expressed in mouse BaF3 cells assessed as induction of RET degradation by measuring fold change at 30 nM measured after 4 hrs by Western blot analysis; format: cell-based; settings: Homo sapiens
BaF3 [13] = assay: PROTAC activity at CRBN/KIF5B-RET (unknown origin) expressed in mouse BaF3 cells assessed as induction of RET degradation by measuring fold change at 30 nM preincubated with compound for 2 hrs followed by compound washout and measured after 24 hrs by Western blot analysis; format: cell-based; settings: Homo sapiens
BaF3 [14] = assay: Inhibition of RET (unknown origin) phosphorylation in mouse BaF3 cells stably expressing KIF5B-RET-V804M mutant assessed as fold change in phosphorylated RET protein level at 300 nM measured after 6 hrs by Western blot analysis; format: cell-based; settings: Homo sapiens
BaF3 [15] = assay: PROTAC activity at CRBN/KIF5B-RET (unknown origin) expressed in mouse BaF3 cells assessed as induction of RET degradation by measuring fold change at 30 nM preincubated with selpercatinib for 2 hrs followed by compound addition and measured after 6 hrs by Western blot analysis; format: cell-based; settings: Homo sapiens
BaF3 [16] = assay: Inhibition of Shc (unknown origin) phosphorylation in mouse BaF3 cells stably expression KIF5B-RET G810C mutant assessed as fold change in phosphorylated Shc protein level at 33.3 nM measured after 6 hrs by Western blot analysis; format: cell-based; settings: Homo sapiens
BaF3 [17] = assay: PROTAC activity at CRBN/KIF5B-RET (unknown origin) expressed in mouse BaF3 cells assessed as induction of RET degradation by measuring fold change at 100 nM measured after 6 hrs by Western blot analysis; format: cell-based; settings: Homo sapiens
BaF3 [18] = assay: PROTAC activity at CRBN/KIF5B-RET (unknown origin) expressed in mouse BaF3 cells assessed as induction of RET degradation by measuring fold change at 30 nM measured after 2 hrs in presence of cycloheximide by Western blot analysis; format: cell-based; settings: Homo sapiens
[19] = system: Kinesin-1 heavy chain/ Tyrosine-protein kinase receptor RET (Homo sapiens), P07949+P33176 [G810C]; assay: In vivo PROTAC activity at CRBN/KIF5B-RET-G810C mutant in male BALB/c mouse model implanted with mouse BaF3 cells stably expressing KIF5B-RET-G810C mutant assessed as induction of RET degradation by measuring fold change in RET protein level in tumor at 30 mg/kg, ip measured after 3 days by Western blotting analysis; format: functional, organism-based; settings: time 3.0 day
BaF3 [20] = assay: Inhibition of RET (unknown origin) phosphorylation in mouse BaF3 cells stably expressing KIF5B-RET-V804M mutant assessed as fold change in phosphorylated RET protein level at 11.1 nM measured after 6 hrs by Western blot analysis; format: cell-based; settings: Homo sapiens
BaF3 [21] = assay: Inhibition of Shc (unknown origin) phosphorylation in mouse BaF3 cells stably expression KIF5B-RET G810R mutant assessed as fold change in phosphorylated Shc protein level at 11.1 nM measured after 6 hrs by Western blot analysis; format: cell-based; settings: Homo sapiens
BaF3 [22] = assay: PROTAC activity at CRBN/KIF5B-RET (unknown origin) expressed in mouse BaF3 cells assessed as induction of RET degradation by measuring fold change at 33.3 nM measured after 6 hrs by Western blot analysis; format: cell-based; settings: Homo sapiens
BaF3 [23] = assay: Inhibition of Shc (unknown origin) phosphorylation in mouse BaF3 cells stably expression KIF5B-RET G810C mutant assessed as fold change in phosphorylated Shc protein level at 11.1 nM measured after 6 hrs by Western blot analysis; format: cell-based; settings: Homo sapiens
BaF3 [24] = assay: Inhibition of Shc (unknown origin) phosphorylation in mouse BaF3 cells stably expression wildtype KIF5B-RET assessed as fold change in phosphorylated Shc protein level at 100 nM measured after 6 hrs by Western blot analysis; format: cell-based; settings: Homo sapiens
BaF3 [25] = assay: PROTAC activity at CRBN/KIF5B-RET (unknown origin) expressed in mouse BaF3 cells assessed as induction of RET degradation by measuring fold change at 3.7 nM measured after 6 hrs by Western blot analysis; format: cell-based; settings: Homo sapiens
BaF3 [26] = assay: Inhibition of RET (unknown origin) phosphorylation in mouse BaF3 cells stably expressing KIF5B-RET-G810R mutant assessed as fold change in phosphorylated RET protein level at 33.3 nM measured after 6 hrs by Western blot analysis; format: cell-based; settings: Homo sapiens
BaF3 [27] = assay: Inhibition of RET (unknown origin) phosphorylation in mouse BaF3 cells stably expressing KIF5B-RET-G810R mutant assessed as fold change in phosphorylated RET protein level at 11.1 nM measured after 6 hrs by Western blot analysis; format: cell-based; settings: Homo sapiens

`COc1ccc(CN2C3CC2CN(c2ccc(-c4cc(-c5cnn(C6CCN(CCCCCC#Cc7cccc8c7CN(C7CCC(=O)NC7=O)C8=O)CC6)c5)cn5ncc(C#N)c45)cn2)C3)cn1` (configuration not stated) was tested, and the fold change (FC) (BaF3 [1]) was 0.4, the fold change (FC) (BaF3 [2]) was 0.9 and the fold change (FC) (BaF3 [3]) was 1. The fold change (FC) (BaF3 [4]) was 0.9, the fold change (FC) (BaF3 [5]) was 0.4 and the fold change (FC) (BaF3 [6]) was 0.4. It also gave a fold change (FC) (BaF3 [7]) of 0.3, a fold change (FC) (BaF3 [8]) of 0.2 and a fold change (FC) (BaF3 [9]) of 0.9. It also gave a fold change (FC) (BaF3 [10]) of 0.9, a fold change (FC) (BaF3 [11]) of 0.8 and a fold change (FC) (BaF3 [12]) of 0.4. The fold change (FC) (BaF3 [13]) was 1, the fold change (FC) (BaF3 [14]) was 0.1 and the fold change (FC) (BaF3 [15]) was 1. The fold change (FC) (BaF3 [16]) was 0.7, the fold change (FC) (BaF3 [17]) was 0.1 and the fold change (FC) (BaF3 [18]) was 0.4. It also gave a fold change (FC) [19] of 0.4, a fold change (FC) (BaF3 [20]) of 0.4 and a fold change (FC) (BaF3 [21]) of 0.9. It also gave a fold change (FC) (BaF3 [22]) of 0.2, a fold change (FC) (BaF3 [23]) of 0.8 and a fold change (FC) (BaF3 [24]) of 0.7. It also gave a fold change (FC) (BaF3 [25]) of 0.5, a fold change (FC) (BaF3 [26]) of 1 and a fold change (FC) (BaF3 [27]) of 0.9.
